One assay concerns the target Mtb AccD6 (Mycobacterium tuberculosis, UniProt P9WQH5). The assay can be described thus: biochemical.
In a further assay the test system is Mtb strain mc^2-7000. The assay can be described thus: microbe, parasite or virus in culture. It is filed as cell-based. Particulars: Mycobacterium tuberculosis, 144 h.

By UniProt entry, the sequences of proteins in these tests, tags left out. Where a name states a change or a piece, a line headed by the entry shows the natural chain unless it says otherwise.
UniProt P9WQH5: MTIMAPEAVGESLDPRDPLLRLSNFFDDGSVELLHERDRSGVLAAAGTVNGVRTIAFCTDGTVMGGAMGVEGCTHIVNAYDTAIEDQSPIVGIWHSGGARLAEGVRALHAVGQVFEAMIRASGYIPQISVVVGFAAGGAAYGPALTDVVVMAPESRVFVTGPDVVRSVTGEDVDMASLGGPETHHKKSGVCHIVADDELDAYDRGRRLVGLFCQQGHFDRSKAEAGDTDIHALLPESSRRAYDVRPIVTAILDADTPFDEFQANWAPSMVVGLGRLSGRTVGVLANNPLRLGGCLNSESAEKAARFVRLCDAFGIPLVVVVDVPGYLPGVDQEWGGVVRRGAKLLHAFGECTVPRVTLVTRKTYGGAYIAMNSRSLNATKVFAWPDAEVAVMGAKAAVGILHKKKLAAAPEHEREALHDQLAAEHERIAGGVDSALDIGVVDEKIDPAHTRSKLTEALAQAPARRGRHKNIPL

Each structure is given as a SMILES string. In brackets after ≈: the same amount, converted by molar mass. Bounds are passed on as bounds.

Compound `CONC(=O)[C@@H](C)Oc1ccc(Oc2nc3ccc(F)cc3s2)cc1` [NZ-289, (2R)-2-{4-[(6-fluoro-1,3-benzothiazol-2-yl)oxy]phenoxy}-N-methoxypropanamide] gave an IC50 against Mtb AccD6 of 6.1 µM. In the assay with Mtb strain mc^2-7000, the MIC amounted to 0.35 µM (≈ 0.127 µg/mL).
Compound `Cn1nnc(COc2ccc(Oc3cnc4cc(Cl)ccc4n3)cc2)n1` [NZ-269, 6-chloro-2-{4-[(2-methyl-2H-1,2,3,4-tetrazol-5-yl)methoxy]phenoxy}quinoxaline] registered an IC50 against Mtb AccD6 of 15.8 µM. In addition, the MIC against Mtb strain mc^2-7000 was greater than 50 µM.
`CC(C)NC(=O)Nc1ccc(Oc2nc3ccc([N+](=O)[O-])cc3s2)cc1` [NZ-363, 1-{4-[(6-nitro-1,3-benzothiazol-2-yl)oxy]phenyl}-3-(propan-2-yl)urea] displayed an IC50 at Mtb AccD6 of 4.7 µM. Besides, the MIC against Mtb strain mc^2-7000 is greater than 50 µM.
Compound `O=C1NCCN1c1ccc(Oc2nc3ccc(Cl)cc3s2)cc1` [NZ-341, 1-{4-[(6-chloro-1,3-benzothiazol-2-yl)oxy]phenyl}imidazolidin-2-one] yielded an IC50 against Mtb AccD6 of 2.6 µM. This compound had an MIC against Mtb strain mc^2-7000 of 12 µM (≈ 4.15 µg/mL).
On Mtb AccD6, `CNC(=O)Nc1ccc(Oc2cnc3cc(Cl)ccc3n2)cc1` [NZ-342, 1-{4-[(6-chloroquinoxalin-2-yl)oxy]phenyl}-3-methylurea] displayed an IC50 of 0.6 µM. In addition, in the assay on Mtb strain mc^2-7000, the MIC was found to be 50 µM (≈ 16.4 µg/mL).
`COC(=O)C(C)c1ccc(Oc2nc3ccc(OC)cc3s2)cc1` (stereo not shown) [NZ-333, methyl 2-{4-[(6-methoxy-1,3-benzothiazol-2-yl)oxy]phenyl}propanoate] returned an IC50 against Mtb AccD6 of 12.5 µM. In the assay on Mtb strain mc^2-7000, this compound displayed an MIC of 12 µM (≈ 4.12 µg/mL).
Compound `COC(=O)Cc1ccc(Oc2nc3ccc(Cl)cc3s2)cc1` [NZ-284, methyl 2-{4-[(6-chloro-1,3-benzothiazol-2-yl)oxy]phenyl}acetate] returned an IC50 against Mtb AccD6 of 17 µM. The same compound registered an MIC with Mtb strain mc^2-7000 of 4.5 µM.
For `CONC(=O)[C@@H](C)Oc1ccc(Oc2nc3ccc(Cl)cc3o2)cc1` [NZ-296, (2R)-2-{4-[(6-chloro-1,3-benzoxazol-2-yl)oxy]phenoxy}-N-methoxypropanamide], in that order: 1.8 µM and 3 µM (≈ 1.09 µg/mL).
For the compound `COC(=O)C(C)c1ccc(Oc2nc3ccc(Cl)cc3s2)cc1` (stereo not shown) [NZ-311, methyl 2-{4-[(6-chloro-1,3-benzothiazol-2-yl)oxy]phenyl}propanoate], half-maximal inhibition against Mtb AccD6 (IC50) was put at 10 µM. This compound also had an MIC against Mtb strain mc^2-7000 of 3 µM (≈ 1.04 µg/mL).
The like results for `COC(=O)Cc1ccc(Oc2cnc3cc(Cl)ccc3n2)cc1` [NZ-297, methyl 2-{4-[(6-chloroquinoxalin-2-yl)oxy]phenyl}acetate] were, in that order, 10 µM and 12 µM.
In turn, `CC(C)NC(=O)Nc1ccc(Oc2cnc3cc(Cl)ccc3n2)cc1` [NZ-322, 1-{4-[(6-chloroquinoxalin-2-yl)oxy]phenyl}-3-(propan-2-yl)urea] came in with an IC50 on Mtb AccD6 of 0.092 µM. The compound also yielded an MIC in the assay on Mtb strain mc^2-7000 of 12 µM (≈ 4.28 µg/mL).

What is called IC50 is the concentration that inhibits the measured activity by half. Lower therefore signals greater potency.

Values taken from US10300071B2, “Compositions and methods for inhibition of mycobacteria” (priority 2014, dated 2019).
